Results published in patent publication US20190225966A1, “Treatment for Glaucoma and Other Eye Diseases” (University of North Texas Health Science Center at Forth …, priority 2016, published 2019).

Experiments:
[1] = test system: TM-3 cells stably expressing DsRed tagged Y437H mutant MYOC; experiment: Western blot and immunostaining of myocilin, ER stress and autophagy markers in TM cells expressing mutant myocilin; format: cell-based, Human
Tg-MYOC^Y437H mice [2] = format: in vivo
Tg-MYOC^Y437H mice [3] = conditions: via enhancing myocilin secretion and reducing ER stress in TM; cited from earlier work
[4] = TM-3 cells expressing mutant myocilin, 24 hours, trehalose 100 mM

For `O=C(COc1ccc(Cl)cc1)N[C@H]1CC[C@H](NC(=O)COc2ccc(Cl)cc2)CC1` [ISRIB], the “mutant myocilin accumulation (Western blot)” value ([1]; TM-5 cells stably expressing mutant myocilin, ISRIB 100 and 200 nM, 48 hours) was “dramatically reduced myocilin accumulation”, the “ATF4 and CHOP cellular protein levels (Western blot)” value ([1]; TM-5 cells stably expressing mutant myocilin, ISRIB, 48 hours) was “inhibited ATF4 and CHOP” and the “elevated IOP versus vehicle-treated contralateral eyes” value (Tg-MYOC^Y437H mice [2]; intravitreal injection 2 mM, 2 ul, 4-months-old mice, IOP after 1 week, N=5) was “significantly reduced elevated IOP”.
In the case of `O=C([O-])CCCc1ccccc1.[Na+]` [PBA, Sodium 4-phenylbutyrate], the “mutant myocilin (Western blot for MYOC)” value ([1]; TM-3 cells expressing mutant myocilin, PBA 1 mM, TB or TB+PBA, 24 hours) is listed as “reduces mutant myocilin” and the “elevated IOP (inventors' earlier work, refs 2, 7)” value (Tg-MYOC^Y437H mice [3]) is listed as “reduces elevated IOP”.
In the case of `Nc1ccc(-c2ccc3ncc4ccc(=O)n(-c5cccc(C(F)(F)F)c5)c4c3c2)cn1` [Torin-2, 9-(6-Amino-3-pyridinyl)-1-[3-(trifluoromethyl)phenyl]-benzo[h]-1,6-naphthyridin-2(1H)-one], the “IOP versus contralateral vehicle treated eyes” value (Tg-MYOC^Y437H mice [2]; eye drops topically for 1 week, N=8, P<0.001) is reported as “dramatically reduced IOP”.
In the case of `OC[C@H]1O[C@H](O[C@H]2O[C@H](CO)[C@@H](O)[C@H](O)[C@H]2O)[C@H](O)[C@@H](O)[C@@H]1O` [trehalose, Trehalose], the “LC3BII form, marker of stimulated autophagy (Western blot)” value [1, 4] is reported as “increased LC3BII form” and the “mutant myocilin accumulation (Western blot)” value [1, 4] is reported as “reduces mutant myocilin dramatically”.
With “Tat-Beclin 1 D11 (RRRQRRKKRGYGGDHWIHFTANWV)” the “elevated IOP versus contralateral eye treated with TS” value (Tg-MYOC^Y437H mice [2]; topical eye drops twice daily for 2 weeks, IOP weekly in the night, n=6) was “reduced elevated IOP”.
